From ChEMBL document CHEMBL4033775, “Natural-Products-Inspired Use of the gem-Dimethyl Group in Medicinal Chemistry” (J Med Chem, 2018) come the findings set out here.

Protein sequences, listed by entry. Tags and fused reporters are not part of them. Lines headed by an entry give the natural chain unless they say otherwise; changes in a name come on top.
UniProt P22894: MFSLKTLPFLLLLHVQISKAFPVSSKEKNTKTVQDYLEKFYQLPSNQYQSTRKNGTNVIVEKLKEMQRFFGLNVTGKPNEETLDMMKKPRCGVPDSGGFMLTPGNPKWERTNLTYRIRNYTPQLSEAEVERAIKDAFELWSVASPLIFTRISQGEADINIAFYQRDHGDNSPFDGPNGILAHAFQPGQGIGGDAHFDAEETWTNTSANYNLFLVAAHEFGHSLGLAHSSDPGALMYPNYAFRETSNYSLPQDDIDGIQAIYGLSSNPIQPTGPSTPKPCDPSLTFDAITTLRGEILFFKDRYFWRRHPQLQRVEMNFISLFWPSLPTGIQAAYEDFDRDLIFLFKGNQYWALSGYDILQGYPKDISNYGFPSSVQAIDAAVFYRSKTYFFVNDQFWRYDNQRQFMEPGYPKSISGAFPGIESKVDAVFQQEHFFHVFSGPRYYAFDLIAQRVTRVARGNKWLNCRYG

Molecules are shown by their SMILES.

Usually IC50 stands for the concentration that inhibits the measured activity by half. The Ki is a measure of affinity in units of concentration, obtained from inhibition or displacement. Higher therefore signals a looser hold on the target.

Assay [1] concerns the target Neutrophil collagenase (Homo sapiens, UniProt P22894). Kind of assay: Inhibition of MMP8 (unknown origin) expressed in Escherichia coli BL21(DE3) using Mca-Pro-Leu-Gly-Leu-Dpa-Ala-Arg-NH2 as substrate after 20 to 30 mins by spectrofluorimetric analysis.
In assay [2] the target is Prothrombin (Homo sapiens, UniProt P00734). Kind of assay: Inhibition of human plasma thrombin using chromogenix AB as substrate after 30 secs by UV-spectrophotometry.

In assay [1], `COc1ccc(S(=O)(=O)N2CCSC(C)(C)C2C(=O)NO)cc1` (configuration not stated) registered an IC50 of 0.7 nM.

Compound `CC1CNc2c(cccc2S(=O)(=O)N[C@@H](CCCNC(=N)N)C(=O)N2CC[C@@H](C)C[C@@H]2C(=O)O)C1` (some centres not stated) [ARGATROBAN] gave an inhibition constant Ki in assay [2] of 40 nM.
